Results on one molecule are retold here after publication PMC3258025 (Molecular Cancer Therapeutics, 2010).

The test system of this test is HEK-EV cells. To be noted: cimetidine 1.5 mmol/L coincubation; P > 0.05.

For `CN/C(=N/CCSCc1nc[nH]c1C)NC#N` [cimetidine], the “Reduction in picoplatin-DNA adduct concentration by cimetidine, HEK-EV cells” value stood at 1.37 fold.
